Amino acid sequences for entries named in this document (tags omitted). A change or cut given only in a name is not applied to a line headed by its entry.
UniProt P42336, whole entry: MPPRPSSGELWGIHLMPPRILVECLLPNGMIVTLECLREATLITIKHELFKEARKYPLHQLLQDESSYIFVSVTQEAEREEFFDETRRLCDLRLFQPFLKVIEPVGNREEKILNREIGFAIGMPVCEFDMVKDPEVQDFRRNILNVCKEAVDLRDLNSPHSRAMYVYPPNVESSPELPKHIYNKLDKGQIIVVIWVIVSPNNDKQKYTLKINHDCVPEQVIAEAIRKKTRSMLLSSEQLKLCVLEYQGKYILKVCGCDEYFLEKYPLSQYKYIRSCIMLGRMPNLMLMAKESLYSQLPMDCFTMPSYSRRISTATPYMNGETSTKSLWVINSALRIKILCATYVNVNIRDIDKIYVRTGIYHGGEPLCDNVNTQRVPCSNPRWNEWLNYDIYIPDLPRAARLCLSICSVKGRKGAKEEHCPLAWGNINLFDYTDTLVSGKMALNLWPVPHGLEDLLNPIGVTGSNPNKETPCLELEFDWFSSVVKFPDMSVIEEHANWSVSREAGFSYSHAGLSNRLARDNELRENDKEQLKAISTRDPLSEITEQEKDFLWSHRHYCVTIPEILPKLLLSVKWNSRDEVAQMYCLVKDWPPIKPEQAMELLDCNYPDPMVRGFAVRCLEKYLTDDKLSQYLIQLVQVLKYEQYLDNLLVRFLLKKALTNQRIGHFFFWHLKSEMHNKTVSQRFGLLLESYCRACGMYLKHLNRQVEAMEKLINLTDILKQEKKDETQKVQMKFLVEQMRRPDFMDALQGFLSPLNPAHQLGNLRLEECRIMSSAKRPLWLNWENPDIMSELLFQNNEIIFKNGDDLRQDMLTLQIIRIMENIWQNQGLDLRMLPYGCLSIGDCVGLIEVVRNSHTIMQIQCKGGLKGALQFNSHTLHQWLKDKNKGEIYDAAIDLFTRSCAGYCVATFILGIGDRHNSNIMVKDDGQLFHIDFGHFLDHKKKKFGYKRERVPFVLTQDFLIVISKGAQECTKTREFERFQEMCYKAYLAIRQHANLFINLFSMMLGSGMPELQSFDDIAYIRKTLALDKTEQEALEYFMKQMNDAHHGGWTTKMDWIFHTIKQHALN
UniProt O00329: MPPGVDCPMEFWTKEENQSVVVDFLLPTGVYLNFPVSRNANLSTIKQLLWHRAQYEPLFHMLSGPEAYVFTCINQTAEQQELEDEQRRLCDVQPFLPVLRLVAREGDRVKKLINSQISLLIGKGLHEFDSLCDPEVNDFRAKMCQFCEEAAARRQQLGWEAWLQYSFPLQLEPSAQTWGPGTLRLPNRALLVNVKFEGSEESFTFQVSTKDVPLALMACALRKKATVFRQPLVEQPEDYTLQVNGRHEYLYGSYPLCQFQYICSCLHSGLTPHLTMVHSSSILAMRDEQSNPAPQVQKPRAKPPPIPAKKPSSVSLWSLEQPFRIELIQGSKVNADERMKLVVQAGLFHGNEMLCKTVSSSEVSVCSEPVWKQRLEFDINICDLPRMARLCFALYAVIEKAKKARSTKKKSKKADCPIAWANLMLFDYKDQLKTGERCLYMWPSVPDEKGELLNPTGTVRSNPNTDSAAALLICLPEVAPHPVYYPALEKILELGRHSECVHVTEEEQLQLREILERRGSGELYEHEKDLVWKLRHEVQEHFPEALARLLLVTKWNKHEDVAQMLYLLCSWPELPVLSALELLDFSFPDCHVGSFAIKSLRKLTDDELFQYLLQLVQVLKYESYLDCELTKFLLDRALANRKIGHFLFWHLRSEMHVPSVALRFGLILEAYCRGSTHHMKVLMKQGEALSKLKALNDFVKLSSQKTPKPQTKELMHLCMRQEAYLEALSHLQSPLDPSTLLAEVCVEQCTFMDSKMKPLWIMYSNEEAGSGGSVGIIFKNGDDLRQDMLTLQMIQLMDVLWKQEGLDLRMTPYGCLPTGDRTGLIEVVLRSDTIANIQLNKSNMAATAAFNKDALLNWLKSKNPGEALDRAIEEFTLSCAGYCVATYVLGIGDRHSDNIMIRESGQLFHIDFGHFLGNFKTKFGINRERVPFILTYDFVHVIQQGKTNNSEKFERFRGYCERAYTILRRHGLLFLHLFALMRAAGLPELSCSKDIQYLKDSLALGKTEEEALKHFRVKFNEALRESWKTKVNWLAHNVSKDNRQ

According to patent US9682141B2, “Combination of kinase inhibitors and uses thereof” (INTELLIKINE LLC, priority 2011, dated 2017):

Experiments:
[1] = target: PI3K α (Homo sapiens (Human), UniProt P42336); assay: PI 3-Kinase (human) HTRF assay, p110α/p85α; assay type: biochemical
[2] = target: PI3K δ (Homo sapiens (Human), UniProt O00329); assay: PI 3-Kinase (human) HTRF assay, p110δ/p85α; assay type: biochemical

Q: `Nc1nc2cc(-c3ccc4ncc(C(=O)N[C@H]5CC[C@H](O)CC5)n4c3)ccc2o1` was tested. Which pIC50 [1] did it give?
A: > 7.00

Q: What about the pIC50 [2] of the same compound?
A: > 7.00

pIC50: −log10 of the molar value.
